Yeast mating assay 1: variants of the scFv Ab-14

Values reported by Engelhart et al. 2022, doi:10.1038/s41597-022-01779-4 (FLAb copy).

The target is the same throughout: PDVDLGDISGINAS, from the HR2 region of SARS-CoV-2 spike.

Parent: Ab-14, a human scFv built as VH, a (GGGGS)3 linker, VL. Only the CDRs of the light chain vary.
VH: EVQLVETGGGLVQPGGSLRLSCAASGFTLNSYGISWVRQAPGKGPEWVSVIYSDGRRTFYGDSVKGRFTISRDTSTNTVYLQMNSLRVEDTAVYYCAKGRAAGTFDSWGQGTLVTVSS
VL: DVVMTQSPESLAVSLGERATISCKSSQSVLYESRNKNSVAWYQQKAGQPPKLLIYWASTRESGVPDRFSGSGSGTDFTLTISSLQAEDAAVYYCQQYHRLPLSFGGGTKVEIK

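Phage display of a naive human antibody library on the peptide gave the parent. In library AAYL50, one, two or three CDR residues were substituted; doubles and triples were drawn at random. The scFvs were displayed on barcoded MATa yeast, the peptide on MATalpha yeast. Pairs that bind mate more often; barcode pairs of the diploids are counted by sequencing. A regression on co-assayed BCL2-family reference pairs converts the normalised counts of each replicate to an apparent Kd. The assay was run in three technical replicates.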

Each variant is given by its three light chain CDRs, as the data file delimits them; those of the parent are KSSQSVLYESRNKNSVA, WASTRES, QQYHRLPLS.
Scale: log10 of Kd in nM, estimated from mating counts; low values are strong binders.
The mean shown is taken over the replicates in which the pair was detected.
"nd" means that the variant was in the library but no mating with the target was seen in any replicate; the authors take this as a sign of poor binding, and no number exists.

CDR-L1	CDR-L2	CDR-L3	mean, log10 nM	seen in
KSSQSVRYESRNKNSVA	IASTRES	QQYHRLPLS	nd	0/3
KSSQCVLYESRYKNSVA	WACTRES	QQYHRLPLS	nd	0/3
KSSASRLYEQRNKNSVA	WASTRES	QQYHRLPLS	1.26	3/3
KSSQSVLYESRNKNSVA	WASTRES	QQYHFLPYC	nd	0/3
KSSQSVLWESRYKNSVA	WADTRES	QQYHRLPLS	1.53	3/3
KSSQSVLCESRNKNSVA	WASTREN	QQYHKLPLS	2.89	1/3
DSSQSVLYESRNKNSVA	WASTREN	QQYHRLPAS	2.15	1/3
KSSQSVLYESRNKTSVA	WASTRES	QQYHRHPAS	1.84	3/3
KSSQSVLYESRNKNSVM	WASTRES	QQYFRLDLS	4.68	3/3
KSSQSVLYESRNKNAVA	WASIRES	QQYHRMPLS	1.39	3/3
GSSQSVLYESRNCNSVA	WASTRES	QQYHRLYLS	5.12	1/3
KSSQSVNYESRNKNKVA	WASTRES	QSYHRLPLS	nd	0/3
KSSQSVLYESRNGNSVA	WASTRES	GQYHRLPLS	1.35	3/3
KSSQSDLYESRNKNSVA	WAHTRES	QWYHRLPLS	3.62	2/3
KSSQSVLYESRNLNSVY	WASTRES	QQDHRLPLS	4.86	1/3
KSSQSVLYESRNKNSVA	WASTRNG	QQYHRLPLS	2.10	3/3
KSSQSVLYVSRNKNSVA	WDSTRES	EQYHRLPLS	nd	0/3
KSSQSVLYESRNKNSVA	WASTRES	NAYHRLWLS	2.48	3/3
KSSQSVLYEARNKNSVA	WASTRES	QTYHWLPLS	nd	0/3
KSSQTVLYESRNKNSVA	WAGTRES	QQYHRLPGS	2.85	3/3
KSSQSVLYESRNKNSVA	WAITTES	QQVHRLPLS	5.36	1/3
KSSQSVTYESRNKNSVA	QASTRES	QQYHRLPLY	0.17	3/3
KSSQSVLYESRNTNSFA	WASTRMS	QQYHRLPLS	nd	0/3
KSSQSVLYESRNKNSVA	LASTPES	QQYSRLPLS	2.92	3/3
KSSQSVLYESRNKNQVA	WAQTRES	QQYHRLPLS	2.71	3/3
KSIQSVLYESRNKNSVA	WASTRIS	QQYHRLPLS	1.27	3/3

Second part, the sequence after the result:

mean, log10 nM	seen in	CDR-L1	CDR-L2	CDR-L3
3.84	1/3	KSSQSVLYVRRNKNSVA	WASTRES	QQYHRLPLQ
2.54	3/3	KSSQSVLYESRWKNPVA	KASTRES	QQYHRLPLS
nd	0/3	KSKQSVLYEMRNKNSVA	WASTRES	QDYHRLPLS
1.69	3/3	ISSQNVLYESRNKNSVA	WASTREL	QQYHRLPLS
4.88	1/3	KSSQSVLAESRNKNSVG	WASTRES	QQYHRLPLS
nd	0/3	KSSWSVLYESRNKNSVA	WASTYES	LQYHRLPLS
3.56	3/3	KRSQSVLYESRNKNSVA	WASTRES	FHYHRLPLS
3.66	2/3	KCSQSVLYESRNSNSVA	WASTRES	QQYHRLPQS
1.58	3/3	KSSQSDLYRSRNKNSVA	WASTREF	QQYHRLPLS
1.32	3/3	SSSQSVLYESRNWNSVA	WASTRES	QQYHRLPGS
1.07	3/3	KSSQSVLYESRNKNSVA	WASTREW	QCIHRLPLS
2.31	3/3	KSSQSVLYESFNKNSVA	FASTREC	QQYHRLPLS
4.26	2/3	KSSQSVLYESRNENSVQ	WASTRES	QQYHRFPLS
nd	0/3	KASQSVLSESRNKNSVH	WASTRES	QQYHRLPLS
5.11	2/3	KSSQSVLYESRTKNSLC	WASTRES	QQYHRLPLS
1.19	3/3	KSSQSVLYESRQKNSVA	WASTRFS	QQYHRLPLS
2.17	3/3	KYSQSVLYESRPKNSVA	WARTRES	QQYHRLPLS
nd	0/3	KSSQIVLYESRNKNSVA	WAFTRES	QQYHRCPLS
2.40	3/3	KSSQSVLYERHNKNSVA	WASTRES	QQYHWLPLS
nd	0/3	KSSQSVLYESRNKNSVA	KASTRES	IQYHRLWLS
3.70	2/3	KSHQSVLYESFNKGSVA	WASTRES	QQYHRLPLS
0.47	3/3	KSSQSVGYESRNKNSVA	WASTRES	QQYQRLPLS
3.58	3/3	KSSQSVIYESRNKNSVA	WASTMEA	QQYHRLPLS
2.96	3/3	KNSCSVLYESRNKNSVA	WASTRES	QQYHRSPLS
4.05	1/3	KSDNSVLYESRNKNSVY	WASTRES	QQYHRLPLS
nd	0/3	KSSQSVLYESRNKNYVA	WASTREL	QVYHRLPLS
nd	0/3	KSSQSVLYESRWKNSVA	WASTRES	QQALRLPLS

The first 8 variants above that were never detected:

CDR-L1	CDR-L2	CDR-L3	mean, log10 nM	seen in
KSSQSVRYESRNKNSVA	IASTRES	QQYHRLPLS	nd	0/3
KSSQCVLYESRYKNSVA	WACTRES	QQYHRLPLS	nd	0/3
KSSQSVLYESRNKNSVA	WASTRES	QQYHFLPYC	nd	0/3
KSSQSVNYESRNKNKVA	WASTRES	QSYHRLPLS	nd	0/3
KSSQSVLYVSRNKNSVA	WDSTRES	EQYHRLPLS	nd	0/3
KSSQSVLYEARNKNSVA	WASTRES	QTYHWLPLS	nd	0/3
KSSQSVLYESRNTNSFA	WASTRMS	QQYHRLPLS	nd	0/3
KSKQSVLYEMRNKNSVA	WASTRES	QDYHRLPLS	nd	0/3

For reference, the parent read 0.65 as the reference entry and 1.68 as a member of this library.
Background: pairings of library AAYL50 with three empty control strains gave a value in 18% of cases (median 4.19, 5th percentile 2.99). Values in that range, when seen in few replicates, are hard to tell from nonspecific mating.